Assay results published in US20040171650A1, “Novel anthelmintic and insecticidal compositions” (priority 2003, published 2004).

Protein sequences, listed by entry. Tags and fused reporters are not part of them. Residues count along the entry.
UniProt Q7KRX1, 1-357: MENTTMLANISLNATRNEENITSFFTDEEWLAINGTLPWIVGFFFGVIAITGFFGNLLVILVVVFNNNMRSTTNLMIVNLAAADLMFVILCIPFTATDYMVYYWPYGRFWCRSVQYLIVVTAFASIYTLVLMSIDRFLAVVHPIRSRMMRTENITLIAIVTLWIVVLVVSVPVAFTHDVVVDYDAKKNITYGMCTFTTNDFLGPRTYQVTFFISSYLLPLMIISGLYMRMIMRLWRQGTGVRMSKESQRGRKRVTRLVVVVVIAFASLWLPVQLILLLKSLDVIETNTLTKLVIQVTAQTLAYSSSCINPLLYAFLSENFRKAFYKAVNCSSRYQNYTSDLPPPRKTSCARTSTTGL

Target: DAR-2 (Drosophila melanogaster, UniProt Q7KRX1)
Assay: DAR-2 (allatostatin receptor) calcium response FLIPR assay in transfected CHO cells
Conditions: CHO cells transfected with DAR-2 DNA; calcium signal (Fluo-3AM, FLIPR)
Procedure: Compounds of the invention were evaluated in an allatostatin receptor binding assay as has been described (Larsen, M. J. et. al., Biochemical and Biophysical Reseach Communications, 2001, 286, 895-901; Lowery, D. E., et. al., 2001, WO 01/31005). Anthelmintic activity was evaluated in a Ascaris suum muscle tension assay as has been described (Bowman, J. W., et. al., J Neurophys., 1995, 74(5), 1880-8; Davis, R. E., et. al., J. Neurosci., 1989, 9, 403-414).
As previously described (Larsen op.cit.), CHO cells were transfected with the DAR-2 DNA on 10 cm plates ([…]) and were trypsinized 24 h after transfections and were plated at a density of 2×10^4 cells/well in black-walled, 96-well plates and incubated for an additional 24 hrs at 37° C./5% CO2 either with or without pertussis toxin (PTX, 100 ng/ml). On the day of treatment, the media were aspirated, the cells were washed with HBBS/HEPES (Hank's Balanced Salt Solution, supplemented with 10 mM HEPES) and incubated with 4 μM Fluo-3AM in HBSS/HEPES, additionally supplemented with 2.5 mM probenecid to inhibit multi drug resistant pump (0.1 ml/well) for 1 h at 37° C./5% CO2. Plates were washed twice with warm HBSS/HEPES/ probenecid buffer immediately prior to activation of the calcium response and 100 μl buffer/per well was left after the last wash. A calcium response was initiated by the addition of candidate receptor agonist compounds (2× concentration in HBSS/HEPES, 100 μl/well). The DSK-R1/SHEP cells were loaded for 1 h at 37° C./5% CO2 with 4 μM calcium green/0.02% pluronic acid in modified Earle's balanced salt solution containing 4 mM CaCl2 dihydrate, 0.8 mM MgSO4.7H2O, 20 mM NaCl, 20 mM Tris-HEPES, 120 mM N-methyl-D-glucamine/HCl, 5.3 mM KCl, […], and 9 mM Tris base. Fluorescence was measured on a 96-well plate-based fluorescence imaging plate reader (FLIPR) with an argon laser (Molecular Devices, Sunnyvale, Calif.). Basal fluorescence of cells was measured for 20 seconds prior to addition of candidate agonist and the basal fluorescence level was subtracted from the response signal. The calcium signal was measured for approximately 200 seconds with readings every two seconds. Calcium ionophore A23187 was used as a control for non-receptor specific calcium release. […]

| Structure (SMILES) | IC50 [nM] |
| --- | --- |
| COc1ccc(C(=O)CSc2nnc(-c3ccncc3)n2-c2ccc(OC)cc2)cc1 | 34 |
| COc1ccc(C(=O)CSc2nnc(-c3ccncc3)n2-c2ccc(Cl)cc2)cc1 | 0.0027 |
| COc1ccc(-n2c(SCC(=O)c3ccc(F)cc3)nnc2-c2ccncc2)cc1 | 898 |
| COc1ccc(-n2c(SCC(=O)c3ccc(F)cc3)nnc2-c2ccsc2)cc1 | 14600 |
| COc1ccc(-n2c(SCC(=O)c3ccc(Cl)cc3Cl)nnc2-c2ccncc2)cc1 | 414 |
| O=C(CSc1nnc(-c2ccncc2)n1-c1ccccc1F)c1ccc(Cl)cc1Cl | 0.16 |
| Cc1ccc(-n2c(SCC(=O)c3ccc(Cl)cc3Cl)nnc2-c2ccncc2)cc1 | 4800 |
| COc1ccc(-n2c(SCC(=O)c3ccc(Cl)cc3)nnc2-c2ccncc2)cc1 | 0.002 |
